From patent US20150018403A1, “FLUORENE-AMIDE COMPOUNDS AND PHARMACEUTICAL USE THEREOF” (JAPAN TOBACCO INC., priority 2013, published 2015)

Biological target: T1, human PDHK2 (hPDHK2) (Homo sapiens, UniProt Q15119)
T1 construct: made in house; host or cells: Escherichia coli BL21(DE3), pET17b vector
Test: Inhibitory action of PDHK2 activity in vitro (residual PDH activity after kinase reaction)
Type: biochemical
Conditions: PDH/hPDHK2 complex, 45 min kinase reaction at room temperature
Method: The inhibitory action of PDHK activity was assessed indirectly by measuring the residual PDH activity after kinase reaction in the presence of a test compound.
In the case of human PDHK2 (hPDHK2, Genbank Accession No. BC040478.1), modified hPDHK2 cDNA wherein FLAG-Tag sequence was added to the N terminus of hPDHK2 cDNA clone (pReceiver-M01/PDK2-GeneCopoeia) was prepared by PCR and cloned into a vector (pET17b-Novagen). The recombinant construct was transformed into Escherichia coli (DH5α-TOYOBO). The recombinant clones were identified, and plasmid DNA was isolated and subjected to the DNA sequence analysis. One clone which had the expected nucleic acid sequence was selected for expression work. […]
0.05 U/mL PDH and 0.8 μg/mL hPDHK2 were mixed in a buffer (50 mmol/L 3-morpholinopropanesulfonic acid (pH 7.0), 20 mmol/L dipotassium hydrogen phosphate, 60 mmol/L potassium chloride, 2 mmol/L magnesium chloride, 0.4 mmol/L EDTA, and 0.2% Pluronic F-68, 2 mmol/L dithiothreitol), and the mixture was incubated at 4° C. overnight to obtain a PDH/hPDHK2 complex. […] The mixture was incubated at room temperature for 90 min, and the residual PDH activity was measured. The absorbance at 340 nm before and after PDH reaction was measured using a microplate reader to detect NADH produced by the PDH reaction. […]

Q: How did the IC50 turn out when `CC(C)(C(N)=O)n1cc(-c2cc(F)cc3c2-c2ccccc2[C@]3(O)C(F)(F)F)cn1` [compound (D), 2-{4-[(9R)-2-Fluoro-9-hydroxy-9-(trifluoromethyl)-9H-fluoren-4-yl]-1H-pyrazol-1-yl}-2-methylpropanamide] was run?
A: The IC50 was 5.1 nM.
